Measurements published in patent publication US20180179198A1, “TRICYCLIC MODULATORS OF TNF SIGNALING” (AbbVie Inc., priority 2015, published 2018).
pIC50: −log10 of the molar value.

Chains of the proteins cited; added tags and fusions are not shown. Residues count along the entry.
UniProt P01375, 77-233 limits assumed: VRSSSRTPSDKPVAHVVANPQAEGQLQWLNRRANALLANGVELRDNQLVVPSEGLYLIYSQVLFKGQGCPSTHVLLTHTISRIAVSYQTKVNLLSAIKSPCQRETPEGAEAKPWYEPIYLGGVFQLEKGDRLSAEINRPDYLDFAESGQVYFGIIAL

Target: TNFα trimer (Homo sapiens, UniProt P01375)
Assay: TNFα FP Competitive Binding Assay
Conditions: read-out: TNF IC50, class symbols A/B/C
Experimental: TNFα FP Competitive Binding Assay
• 1. Assay Buffer: Prepare 1× Assay Buffer (Water with 47 mM HEPES, 47 mM NaCl, 0.9 mM EDTA, 0.0071% Triton X-100) by adding 25 mL of 1 M HEPES, 5 mL of 5 M NaCl, 1 mL of 0.5 M EDTA, and 375 μL of a 10% Triton X-100 stock to a fresh 500 mL bottle of water. • 2. Assay Mixture: Prepare fresh Assay Mixture containing 20 nM TNFα trimer (60 nM protein) and 1 nM 2′,7′-difluoro-3′,6′-dihydroxy-N-(2-(2-(2-((4-(isoquinolin-8-yl)-3-(4-(isoquinolin-8-yl)phenethoxy)benzyl)oxy)ethoxy)ethoxy)ethyl)-3-oxo-3H-spiro[isobenzofuran-1,9′-xanthene]-5-carboxamide probe in 1× Assay Buffer.
Compound Plate Preparation
Manual 12-point 1:3 Dilution Plates: (384 well polypropylene plates)
Top concentration of compounds, 10 mM in DMSO, dispensed in rows A-O in columns 1 and 13. Compounds are serially diluted 1:3 with DMSO in columns 2-12 or 14-24 using a 16-channel Matrix pipettor. Plates stored at −20° C.
Discovery Preps 12-point 1:3 Dilution Plates: (384 well assay plates)
Top concentration, 5 mM in DMSO, of compounds placed in rows A-O in columns 1 and 13. Compounds are serially diluted 1:3 with DMSO in columns 2-12 or 14-24. Compound solutions are dispensed into replicate assay plates at 410 nL per well. Plates stored at 4° C.
TNFα FP Competitive Binding Assay Protocol
• 1. Compound plates are warmed to rt. • 2. Fresh Assay Mixture is prepared. • 3. Assay Mixture (20 μL) is dispensed each well of 384 assay plates using a Thermo Multidrop Combi or 16-channel Matrix pipettor. If Manual 12-point 1:3 Dilution Plates are to be tested, Assay Mix is dispensed into empty plates. Discovery Preps 12-point 1:3 Dilution Plates already contain 410 nL compound solution in DMSO. • 4. […] Prior to reading the assay, the plates are placed in a dark cabinet to equilibrate at rt for one hour. • 9. Background-subtracted fluorescence polarization (mP) is measured using a PerkinElmer Envision plate reader. • 10. […]

Row | Compound | pIC50
1 | CN(C)CCCOc1ccc(-c2ccc3nc4n(c3c2)C(c2ccccc2)COC4)cn1 (stereo not drawn) | 4.00 to 5.00
2 | COc1ccccc1C1CCOc2nc3ccc(-c4cnc(C(C)(C)O)nc4)cn3c21 (stereo not drawn) | 5.00 to 6.00
3 | O=C1NC[C@@H]2CN(c3ncc(-c4ccc5nc6n(c5n4)[C@@]4(COC6)COc5ccccc54)cn3)CCN12 | > 6.00
